We go through one molecule from ChEMBL document CHEMBL1255193, “Structure-based optimization of pyrazolo-pyrimidine and -pyridine inhibitors of PI3-kinase” (Bioorg Med Chem Lett, 2010).

The chains behind the UniProt entries cited, without tags or fusion partners.
UniProt P42336, whole entry: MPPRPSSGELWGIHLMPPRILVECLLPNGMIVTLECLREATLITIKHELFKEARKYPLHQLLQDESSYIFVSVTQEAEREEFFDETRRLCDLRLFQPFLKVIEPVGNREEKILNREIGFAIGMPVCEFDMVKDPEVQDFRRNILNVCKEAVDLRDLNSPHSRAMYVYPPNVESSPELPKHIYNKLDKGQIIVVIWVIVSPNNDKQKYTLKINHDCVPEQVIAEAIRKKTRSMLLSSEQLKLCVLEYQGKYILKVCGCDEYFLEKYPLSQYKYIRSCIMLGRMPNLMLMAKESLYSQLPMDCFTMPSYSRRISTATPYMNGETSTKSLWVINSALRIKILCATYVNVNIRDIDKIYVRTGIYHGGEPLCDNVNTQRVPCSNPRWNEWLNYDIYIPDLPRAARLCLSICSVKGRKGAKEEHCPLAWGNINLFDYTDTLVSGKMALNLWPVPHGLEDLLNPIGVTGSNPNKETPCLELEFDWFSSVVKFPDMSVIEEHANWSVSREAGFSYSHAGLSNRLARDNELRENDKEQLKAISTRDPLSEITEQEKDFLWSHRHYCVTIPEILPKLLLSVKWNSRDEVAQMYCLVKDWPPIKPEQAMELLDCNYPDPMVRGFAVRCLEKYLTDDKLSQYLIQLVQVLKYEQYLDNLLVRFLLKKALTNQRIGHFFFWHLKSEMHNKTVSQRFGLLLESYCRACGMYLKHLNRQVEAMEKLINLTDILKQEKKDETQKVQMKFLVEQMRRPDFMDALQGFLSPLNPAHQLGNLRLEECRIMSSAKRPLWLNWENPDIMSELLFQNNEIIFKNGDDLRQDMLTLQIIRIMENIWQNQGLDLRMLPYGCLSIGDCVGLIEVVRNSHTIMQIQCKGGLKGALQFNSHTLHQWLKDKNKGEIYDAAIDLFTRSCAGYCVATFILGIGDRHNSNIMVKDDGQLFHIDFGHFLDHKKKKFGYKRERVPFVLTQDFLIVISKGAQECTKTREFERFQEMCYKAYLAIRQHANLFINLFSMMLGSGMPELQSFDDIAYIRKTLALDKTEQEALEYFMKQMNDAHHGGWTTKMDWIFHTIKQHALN

The target of this assay is Phosphatidylinositol 4,5-bisphosphate 3-kinase catalytic subunit alpha isoform (Homo sapiens, UniProt P42336). The experiment in a line: Inhibition of PI3Kalpha.

`COc1cccc(Nc2nc(N3CCS(=O)(=O)CC3)nc3c2cnn3C)c1` returned an IC50 of 75 nM.

A word on the IC50: it is the concentration needed to halve the response being measured. A low value points to greater potency in that assay.
